Test results taken from PubChem BioAssay AID1347430 (National Center for Advancing Translational Sciences (NCATS), 2020).
The entries are a selection whose mix differs from that of the whole data set. Activity calls are given as the source filed them. Calls follow the shape of the dose curve; as a rule, active = well fitted inhibition curve with a large enough effect; inconclusive = small, poorly fitted or top-dose-only effect; inactive = flat fitted curve, though single readings scatter.

system: Uracil-DNA glycosylase; experiment: Primary qHTS assay for inhibitors of Activation Induced Cytidine Deaminase (AID): UDG Counterscreen signal; settings: FRET deamination/UDG coupled assay, UDG read, 4 h; at 115 µM (top of the series); also: nearly all actives have a fitted effect of over 65% in size
Excerpt: Assay Provider (PI) Patricia Gearhart Ph.D.
National Institute on Aging
National Institute of Health (NIH), Bethesda, MD
Assay Provider (PI) Rahul Kohli Ph.D.
Perelman School of Medicine
University of Pennsylvania, Philadelphia, PA
Activation-Induced Deaminase (AID) is a cytosine deaminase which converts cytosine into uracil within stretches of ssDNA. The presence of uracil in DNA initiates a cascade of mutagenic DNA repair to introduce point mutations and DNA double strand breaks. Specific targeting of AID to the immunoglobulin heavy chain loci (Igh) promotes mutagenesis in the antibody variable region for somatic hypermutation (SHM) or switch regions leading to class switch recombination (CSR). […]
A FRET based analysis of cytosine deamination, was developed to identify potential inhibitors of AID catalytic activity. This screen has two signal output, Read 1 evaluates the AID inhibition response. The second readout (Read 2) evaluates UDG response and is uses as a counterscreen to exclude false positive inhibitors. […]
9a; Detection; fluorescence (Read 1: AID); EnVision (PerkinElmer) plate reader, 540 excitation and 590 emission filters
9b; Detection; fluorescence (Read 2: UDG); EnVision (PerkinElmer) plate reader, 560 excitation and 665 emission filters […]
9a; Fluorescence signal (column label AID) was read using the EnVision plate reader. […]
% is scaled to controls: 0 for no effect and ±100 for the full control effect.

Row | SMILES | activity change, negative = inhibition
1 | N#[O+].[C-]#N.[C-]#N.[C-]#N.[C-]#N.[C-]#N.[Fe+2].[Na+].[Na+] | inactive: -12.5%
